Experimental data: PMC8958505, “Discovery of Potential Neuroprotective Agents against Paclitaxel-Induced Peripheral Neuropathy” (Journal of Medicinal Chemistry, 2022)
Where “and” joins values, the source holds several entries; their conditions need not be identical. Equal values may be shown once. Where a name gives a salt, the structure may show the parent alone. Read-outs that look alike come from different tables or passages of the source.

How the values were obtained:
[1] = Pharmacokinetics after intraperitoneal administration; format: in vivo; conditions: male, ICR, mouse, plasma, 5 mg/kg, 5 mg/kg IP, at one hour
Procedure: Male ICR mice weighed (29–33 g) were obtained from BioLASCO (Taiwan Co., Ltd., Ilan, Taiwan). The animal studies were performed according to NHRI institutional animal care and committee-approved procedures. Food and water were available ad libitum throughout the experiment. A single 5.0 mg/kg dose of CN016 was dissolved in normal saline and was separately administered to mice intravenously. The groups consisted of three mice for each time point. At times 0.03, 0.08, 0.25, 0.5, 1, 2, 4, 6, 8, 16, and 24 h after dosing, blood was collected from groups of three mice at each time point by cardiac puncture. Plasma was separated from blood and stored in a freezer (−80 °C) before LC/MS/MS analysis. In addition, pharmacokinetic analysis of CN016 following intraperitoneal administration (IP, 5 mg/kg) is provided in Figure S2 (Supporting Information).
Figure S2. Pharmacokinetic profiles of CN016 (5 mg/kg) after intraperitoneal administration. (A) Plasma concentration-time profiles of the CN016 after intraperitoneal injection of a 5 mg/kg dose. Red Circle: a drug concentration of 10 nM.
Blue Triangle: a drug concentration of 1000 nM. (B) Pharmacokinetic parameter of CN016 after intraperitoneal administration.
The pharmacokinetics of CN016 after IP administration (5 mg/kg) is illustrated in Figure S2. […]

CYP 2D6 = molecular target: T1, CYP 2D6 (Homo sapiens, UniProt P10635); experiment: Cytochrome P450 testing, CYP 2D6; format: in vitro ADME; conditions: dextromethorphan O-demethylation; read-out: Concentration of inhibition (IC50), CYP 2D6
T1 construct: host or cells: baculovirus-infected insect cells (supersomes)
Excerpt: Cytochrome P450 testing of CN016
The effects of CN016 on the activity of six specific human liver cytochrome P450 isozymes (CYP 1A2, 2C9, 2C19, 2D6, 2E1, 3A4) expressed in baculovirus-infected insect cell supersomes were studied. The reactions used to measure the activity of these enzymes were phenacetin O-deethylation (1A2), diclofenac 4-hydroxylation (2C9), mephenytoin 4-hydroxylation (2C19), dextromethorphan O-demethylation (2D6), chlorzoxazone 6-hydroxylation (2E1) and testosterone 6-hydroxylation (3A4).
Furafylline, sulfaphenazole, tranylcypromine, quinidine, diethyldithiocarbamate and azamulin were used as reference inhibitors of these enzymes. Incubation mixtures containing no CN016 or reference inhibitors were used as controls. The tested result […]
Table S4. Result of Cytochrome P450 testing of CN016

Adrenergic α1B = Adrenergic α1B (Homo sapiens, UniProt P35368); experiment: LeadProfilingScreen: Adrenergic α1B; format: binding
Adrenergic β1 = Adrenergic β1 (Homo sapiens, UniProt P08588); experiment: LeadProfilingScreen: Adrenergic β1; format: binding; conditions: read-out: Inhibition (%), Adrenergic β1
Excerpt: (§1) LeadProfilingScreen (Total # of Assays: 67)
(§2) To evaluate, in LeadProfilingScreen, the activity of test compound CN168 (Panlabs # 1251879). […]
(§3) Summary of Significant Results
(§4) Biochemical assay results are presented as the percent inhibition of specific binding or activity throughout the report.
(§5) All other results are expressed in terms of that assay's quantitation method.
(§6) • For primary assays, only the lowest concentration with a significant response judged by the assays' criteria, is […]
(§7) • Where applicable, either the secondary assay results with the lowest dose/concentration meeting the significance […]
(§8) • Unless otherwise requested, primary screening in duplicate with quantitative data (e.g., IC50 ± SEM, Ki ± SEM and nH) are shown where applicable for individual requested assays. In screening packages, primary screening in duplicate with semi-quantitative data (e.g., estimated IC50, Ki and nH) are shown where applicable (concentration range of 4 log units); available secondary functional assays are carried out ([…]) and MEC or MIC determined only if active in primary assays >50% at 1 log unit below initial test concentration. […]

Adrenergic β2 = Adrenergic β2 (Homo sapiens, UniProt P07550); experiment: LeadProfilingScreen: Adrenergic β2; format: binding; conditions: read-out: Inhibition (%), Adrenergic β2
Excerpt: as §1, §2, §3, §4, §5, §6, §7, §8

Androgen (Testosterone) = Androgen (Testosterone) (Homo sapiens, UniProt P10275); experiment: LeadProfilingScreen: Androgen (Testosterone); format: binding
Bradykinin B1 = Bradykinin B1 (Homo sapiens, UniProt P46663); experiment: LeadProfilingScreen: Bradykinin B1; format: binding
[2] = tested on: Calcium Channel L-Type, Dihydropyridine; experiment: LeadProfilingScreen: Calcium Channel L-Type, Dihydropyridine; format: binding, rat; conditions: 10 μM
Dopamine D2S = Dopamine D2S (Homo sapiens, UniProt P14416); experiment: LeadProfilingScreen: Dopamine D2S; format: binding
Estrogen ERα = Estrogen ERα (Homo sapiens, UniProt P03372); experiment: LeadProfilingScreen: Estrogen ERα; format: binding
Histamine H1 = Histamine H1 (Homo sapiens, UniProt P35367); experiment: LeadProfilingScreen: Histamine H1; format: binding
[3] = molecular target: Nicotinic Acetylcholine α1, Bungarotoxin (Homo sapiens, UniProt P02708+P07510+Q07001); format: binding; conditions: 10 μM
[4] = molecular target: Nicotinic Acetylcholine α3β4 (Homo sapiens, UniProt P30926+P32297); experiment: LeadProfilingScreen: Nicotinic Acetylcholine α3β4; format: binding
Opiate δ1 (OP1, DOP) = Opiate δ1 (OP1, DOP) (Homo sapiens, UniProt P41143); experiment: LeadProfilingScreen: Opiate δ1 (OP1, DOP); format: binding
hERG = hERG (Homo sapiens, UniProt Q12809); experiment: hERG patch-clamp assay (hERG-CHO, automated patch-clamp); format: cell-based; set-up: host or cells: CHO (hERG-CHO)
Procedure: CN016 were tested in the hERG (hERG-CHO, automated patch-clamp) assay and determined at Eurofins Panlabs (Missouri, USA). The experiment was accepted in accordance with Eurofins validation Standard Operating Procedure. The tested result […]
Table S3. Result of hERG patch-clamp assay of CN016

For O=P(O)(O)CCN1CCC(Nc2cc(N3CCOCC3)nc(NCc3cn(CCCO)nn3)n2)CC1 [CN016, {2-[4-(2-{[1-(3-Hydroxy-propyl)-1H-[1,2,3]triazol-4-ylmethyl]-amino}-6-morpholin-4-yl-pyrimidin-4-ylamino)-piperidin-1-yl]-ethyl}-phosphonic Acid Hydrobromide Salt], the concentration at 1 h [1] was 58 ng/mL and 84.4 nM, the IC50 (CYP 2D6) was > 100 µM and the inhibition at 10 µM (Adrenergic α1B) was 14%. It also gave an inhibition at 10 µM (Adrenergic β1) of 4%, an inhibition at 10 µM (Adrenergic β2) of -4% and an inhibition at 10 µM (Androgen (Testosterone)) of 6%. For the same compound, the inhibition at 10 µM (Bradykinin B1) was -10%, the “Inhibition (%), Calcium Channel L-Type, Dihydropyridine” value [2] was 14% and the inhibition at 10 µM (Dopamine D2S) was 3%. For the same compound, the inhibition at 10 µM (Estrogen ERα) was -17%, the inhibition at 10 µM (Histamine H1) was 19% and the “Inhibition (%), Nicotinic Acetylcholine α1, Bungarotoxin” value [3] was 7%. For the same compound, the “Inhibition (%), Nicotinic Acetylcholine α1, Bungarotoxin” value ([3]; listed as CN168, 10 µM) was -6%, the inhibition at 10 µM [4] was 7% and the inhibition at 10 µM (Opiate δ1 (OP1, DOP)) was 6%. For the same compound, the inhibition at 1 µM (hERG; human, CHO cells that express hERG (hERG-CHO), 1 μM) was 6%, the inhibition at 10 µM (hERG; human, CHO cells that express hERG (hERG-CHO), 10 μM) was 19.1% and the inhibition at 100 µM (hERG; human, CHO cells that express hERG (hERG-CHO), 100 μM) was 32.9%. The hERG liability (hERG; up to 100 μM, patch-clamp) was “not observed”.
